Target: T1, Arachidonate 5-lipoxygenase (Bos taurus, UniProt Q9BEG3)
T1 sequence (Q9BEG3 whole entry): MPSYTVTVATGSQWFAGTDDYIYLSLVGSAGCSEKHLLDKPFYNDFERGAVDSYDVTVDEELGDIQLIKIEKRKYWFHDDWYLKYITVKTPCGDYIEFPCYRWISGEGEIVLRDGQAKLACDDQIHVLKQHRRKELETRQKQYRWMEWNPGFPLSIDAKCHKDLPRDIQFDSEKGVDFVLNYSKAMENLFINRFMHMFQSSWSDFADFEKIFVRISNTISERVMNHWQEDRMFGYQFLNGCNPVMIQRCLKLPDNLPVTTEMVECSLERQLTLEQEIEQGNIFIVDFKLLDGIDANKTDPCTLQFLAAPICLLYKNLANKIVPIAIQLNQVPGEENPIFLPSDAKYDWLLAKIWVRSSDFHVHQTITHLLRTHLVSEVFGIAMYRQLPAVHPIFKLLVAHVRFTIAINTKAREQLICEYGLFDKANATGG
Test: Inhibitory activity against 5-lipoxygenase (inhibition of 5-HETE and LTB4 biosynthesis) in bovine polymorphonuclear leukocytes (PMNL).
Format: cell-based

COc1cc(CCC(=O)C2c3cccc(O)c3C(=O)c3c(O)cccc32)cc(OC)c1OC
IC50: 14 µM

Source: ChEMBL document CHEMBL1126969, “Antipsoriatic anthrones with modulated redox properties. 1. Novel 10-substituted 1,8-dihydroxy-9(10H)-anthracenones as inhibitors of 5-lipoxygenase” (J Med Chem, 1993)
